Target: Lactate dehydrogenase (LDH) (Oryctolagus cuniculus, UniProt P13491)
Experiment: Inhibition of dehydrogenase activity of lactate dehydrogenase
Type: biochemical
Conditions: ratio of LDH IC50 to CtBP2 IC50

O=C(O)/C(Cc1ccc(Cl)cc1)=N\O [Compound 14g, 3-(4-chlorophenyl)-2-(hydroxyimino)propanoic acid]
Selectivity for CtBP2 over LDH: > 170 fold
